Activation data for 60 molecules are collected here from PubChem BioAssay AID588819 (The Scripps Research Institute Molecular Screening Center, 2011).

Amino acid sequences for entries named in this document (tags omitted).
UniProt P11229, whole entry: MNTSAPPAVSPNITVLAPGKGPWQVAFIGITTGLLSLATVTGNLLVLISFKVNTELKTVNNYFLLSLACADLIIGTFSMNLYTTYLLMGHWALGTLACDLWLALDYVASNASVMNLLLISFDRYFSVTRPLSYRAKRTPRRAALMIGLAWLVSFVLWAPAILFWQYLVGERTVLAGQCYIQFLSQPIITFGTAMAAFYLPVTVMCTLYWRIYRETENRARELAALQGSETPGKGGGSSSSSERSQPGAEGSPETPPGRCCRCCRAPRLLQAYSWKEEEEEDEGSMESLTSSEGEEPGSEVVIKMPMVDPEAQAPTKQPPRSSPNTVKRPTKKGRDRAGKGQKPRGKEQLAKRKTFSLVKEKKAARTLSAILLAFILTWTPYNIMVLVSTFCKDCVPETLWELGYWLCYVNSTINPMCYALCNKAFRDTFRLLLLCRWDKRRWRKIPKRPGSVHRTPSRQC

The entries are a selection whose mix differs from that of the whole data set. Some structures show a salt or complex split into parts, the way the source records it. Active and inactive are the calls of the source. Cut-off read from the data, not from the text of the source: active = activation above about 19% (passing the limit was not always enough); inactive = the rest.

This assay concerns the target Muscarinic acetylcholine receptor M1 (Homo sapiens) (UniProt P11229). The experiment in a line: CHRM1 PAMs potentiating acetylcholine calcium signal – CHO-K1 cells, Fluo-8 calcium fluorescence, 1536-well, primary screen (AID 588819). The note with it: CHO-K1 hM1, Fluo-8 calcium fluorescence, ACh EC20; at 3 µM; active compounds read high; 0% = ACh EC20, 100% = maximal ACh.
As to `COc1ccccc1OP(C)(=O)Nc1ccc(Br)cc1` (stereo not given), the activation is inactive: 5.33%.
The figure for `COc1ccc(OP(C)(=O)Nc2ccccn2)cc1` (stereo not given) is inactive: 3.67%; for `CN(C)CCOC(=O)C(O)(c1ccccc1)C1CCCC1` (stereo not given) it is inactive: -33.2%.
The figure for `Cc1c(NP(C)(=O)Oc2ccc(C(C)C)cc2)c(=O)n(-c2ccccc2)n1C` (stereo not given) is inactive: 11.2%; for `O=[N+]([O-])c1cc([N+](=O)[O-])c(Nc2ccccn2)c([N+](=O)[O-])c1` it is inactive: 1.37%; for `COc1ccccc1OP(C)(=O)Nc1ccc(C)cc1C` (stereo not given) it is inactive: 11%.
Take `CP(=O)(Nc1ccccn1)Oc1ccccc1` (stereo not given): the activation was inactive: 2.6%.
The figure for `CCc1ccc(OP(C)(=O)O)cc1` is inactive: 7.85%.
For the molecule `Cc1cc(C)cc(OP(C)(=O)Nc2cccc(C(F)(F)F)c2)c1` (stereo not given), the activation is inactive: 7.52%.
In the case of `O=C1C(O)=C([N+](=O)[O-])C(=O)C(O)=C1[N+](=O)[O-]`, the activation is inactive: 1.68%.
As to `COc1ccccc1OP(C)(=O)Nc1ccc(C)c(C)c1` (stereo not given), the activation is inactive: 8.27%.
In the case of `COc1ccc(OP(C)(=O)Nc2ccccc2Br)cc1` (stereo not given), the activation was inactive: 4.88%.
Regarding `CCCCCCCCCCCCCCCC1C[N+](C)(C)CCOP(C)(=O)O1` (stereo not given), the activation is inactive: -19.8%.
Consider `CP(=O)(Nc1ccc(Cl)cc1Cl)Oc1ccccc1` (stereo not given), for which the activation is inactive: 11.9%.
The figure for `CP(=O)(OCCOc1ccccc1)OCCOc1ccccc1` is inactive: 4.56%; for `CCOC(=O)c1ccc(NP(C)(=O)Oc2ccc(Cl)cc2)cc1` (stereo not given) it is inactive: 6.78%; for `CP(=O)(OC12CC3CC(CC(C3)C1)C2)OC12CC3CC(CC(C3)C1)C2` it is inactive: 0.47%.
On to `COc1ccc(OP(C)(=O)Nc2ccc(Br)cc2)cc1` (stereo not given), for which the activation was inactive: 8.77%.
The figure for `CCN(CC)CC(O)COC(=O)C(O)(c1ccccc1)C1CCCCC1` (stereo not given) is inactive: -19.7%; for `O=C(OCCCN1CCCC1)C(O)(c1ccccc1)C1CCCCC1` (stereo not given) it is inactive: -26.9%.
As to `COc1ccccc1OP(C)(=O)Nc1c(C)n(C)n(-c2ccccc2)c1=O` (stereo not given), the activation is inactive: 3.59%.
In the case of `CCc1ccc(OP(C)(=O)Nc2cccnc2)cc1` (stereo not given) it was inactive: 7.23%.
With `CP(=O)(Oc1ccccc1)N1CCOC1=O` (stereo not given), the activation was inactive: 1.57%.
The figure for `COc1ccccc1OP(C)(=O)Nc1ccccc1Br` (stereo not given) is inactive: 3.27%; for `CC(C)(C)c1ccc(OP(C)(=O)O)cc1` it is inactive: -4.79%.
As to `CP(=O)(Nc1ccc(Cl)cc1)Oc1ccc(F)cc1` (stereo not given), the activation was inactive: 4.32%.
On to `CN(C)C(=O)c1c([N+](=O)[O-])cc([N+](=O)[O-])cc1[N+](=O)[O-]`, for which the activation was inactive: 3.73%.
The figure for `CP(=O)(Nc1ccc(SC(F)(F)F)cc1)Oc1ccc(F)cc1` (stereo not given) is inactive: -3.84%; for `CCOP(C)(=S)SCC(=O)NC(C)(CC)C(=O)O` (stereo not given) it is inactive: 8.08%; for `CP(=O)(Nc1ccc2c(c1)OCCO2)Oc1ccccc1` (stereo not given) it is inactive: -1.31%.
Turning to `Cc1ccccc1NP(C)(=O)Nc1ccccc1C`, the activation is inactive: 7.1%.
In the case of `COc1ccc(OP(C)(=O)Nc2cccc(Br)c2)cc1` (stereo not given) it was inactive: 2.59%; in that of `CN(C)C1(CNC(=O)c2ccc(Cl)c(S(N)(=O)=O)c2)CCCCC1`, inactive: 3.72%.
The figure for `CN(C)CCOC(=O)C(O)(c1ccccc1)C1CCCCC1` (stereo not given) is inactive: -21.6%; for `COc1ccc(NP(C)(=O)Oc2ccccc2OC)cc1` (stereo not given) it is inactive: -6.21%; for `O=[N+]([O-])c1ccc(OP2(=O)COCCO2)cc1` (stereo not given) it is inactive: 13.2%.
Regarding `Cc1cc(-c2cccc3ccccc23)c(C)cn1.O=[N+]([O-])c1cc([N+](=O)[O-])c(O)c([N+](=O)[O-])c1`, the activation is inactive: 6.77%.
As for `O=[N+]([O-])c1cc([N+](=O)[O-])c(NCC2CCS(=O)(=O)C2)c([N+](=O)[O-])c1` (stereo not given), the activation was inactive: -12.5%.
As for `Cc1c(C(c2ccc3c(c2)OCO3)c2c(C)n(C)n(-c3ccccc3)c2=O)c(=O)n(-c2ccccc2)n1C.O=[N+]([O-])c1cc([N+](=O)[O-])c(O)c([N+](=O)[O-])c1`, the activation was inactive: 4.88%.
In the case of `CCOC(=O)c1ccc(NP(C)(=O)Oc2ccc(F)cc2)cc1` (stereo not given) it was inactive: 4.39%.
As for `COc1ccc(OP(C)(=O)Nc2ccc(SC(F)(F)F)cc2)cc1` (stereo not given), the activation was inactive: 3.5%.
The figure for `Cc1c([N+](=O)[O-])cc([N+](=O)[O-])c(Br)c1[N+](=O)[O-]` is inactive: 1.57%; for `CCN(CC)CCCOC(=O)C(O)(c1ccccc1)C1CCCCC1` (stereo not given) it is inactive: -20.6%.
In the case of `CP(=O)(Nc1ccccc1)Oc1ccc(F)cc1` (stereo not given) it was inactive: 6.74%.
The figure for `CCCCCOc1ccc(NP(C)(=O)Oc2ccc(Cl)cc2Cl)cc1` (stereo not given) is inactive: 4.92%; for `O=[N+]([O-])c1cc([N+](=O)[O-])c(OC2CCCCC2O)c([N+](=O)[O-])c1` (stereo not given) it is inactive: 6.38%; for `O=[N+]([O-])c1cc([N+](=O)[O-])c(Nc2ccc(Cl)cc2)c([N+](=O)[O-])c1` it is inactive: -12.3%.
As for `CP(=O)(Nc1ccccc1F)Oc1ccccc1` (stereo not given), the activation is inactive: 5.05%.
In the case of `CC(C)c1ccc(OP(C)(=O)Nc2ccc(SC(F)(F)F)cc2)cc1` (stereo not given) it was inactive: -9%.
The figure for `O=C(OC1CN2CCC1CC2)c1ccc([N+](=O)[O-])cc1` (stereo not given) is inactive: 5.25%; for `O=C(OCCN1CCN(CCOCc2ccccc2)CC1)C(O)(c1ccccc1)c1ccccc1` it is inactive: -22.3%; for `COc1ccc2c(c1O)-c1c(O)c(OC)cc3c1[C@H](C2)[N+](C)(C)CC3.O=[N+]([O-])c1cc([N+](=O)[O-])c([O-])c([N+](=O)[O-])c1[O-]` it is inactive: 0.02%.
The figure for `COc1ccccc1OP(C)(=O)Nc1cccc(Br)c1` (stereo not given) is inactive: 8.75%; for `COc1cc(C(=O)NCC2(N3CCOCC3)CCCCC2)cc(Cl)c1OC(C)C` it is inactive: -12.3%.
Turning to `CCOC(=O)c1ccc(NP(C)(=O)Oc2cc(C)cc(C)c2)cc1` (stereo not given), the activation is inactive: -4.6%.
In the case of `Cc1cc(C)cc(OP(C)(=O)Nc2ccc(C)cc2C)c1` (stereo not given) it was inactive: 7.46%; in that of `Cc1ccc(C)c(NP(C)(=O)Oc2ccccc2)c1` (stereo not given), inactive: 18.4%.
`Cc1cc(C)cc(OP(C)(=O)Nc2ccccn2)c1` (stereo not given): the activation was inactive: 1.05%.
In the case of `CP(=O)(Nc1cccc(Br)c1)Oc1ccccc1` (stereo not given) it was inactive: 5.55%.
With `O=C(O)c1cccc(Nc2c([N+](=O)[O-])cc([N+](=O)[O-])cc2[N+](=O)[O-])c1`, the activation is inactive: 7.09%.
